The assay is filed under the species Homo sapiens. Nature of the assay: Selectivity ratio of IC50 for biotin labelled Bid-BH3 binding to GST-tagged BCL-XL (unknown origin) to IC50 for biotin labelled Bid-BH3 binding to GST-tagged MCL1 (unknown origin).

As for `O=C(O)CSc1ccc(C(=O)c2[nH]c(Cl)c(Cl)c2-n2c(C(=O)c3ccc(SCC(=O)O)cc3O)cc(Cl)c2Cl)c(O)c1`, the Ratio IC50 came out at 16.4.

(Values after ChEMBL document CHEMBL4145520, “Small-molecule Mcl-1 inhibitors: Emerging anti-tumor agents” (Eur J Med Chem, 2018).)
